The values that follow come from patent publication US5760000A (University Technologies International,Inc., priority 1994, dated 1998).

The test addresses T1, normal pituitary cell GnRH receptors (Rattus norvegicus, UniProt P30969).
T1 construct: normal pituitary cell GnRH receptors; from tissue; host or cells: normal rat pituitary
T1 sequence (P30969 1-327): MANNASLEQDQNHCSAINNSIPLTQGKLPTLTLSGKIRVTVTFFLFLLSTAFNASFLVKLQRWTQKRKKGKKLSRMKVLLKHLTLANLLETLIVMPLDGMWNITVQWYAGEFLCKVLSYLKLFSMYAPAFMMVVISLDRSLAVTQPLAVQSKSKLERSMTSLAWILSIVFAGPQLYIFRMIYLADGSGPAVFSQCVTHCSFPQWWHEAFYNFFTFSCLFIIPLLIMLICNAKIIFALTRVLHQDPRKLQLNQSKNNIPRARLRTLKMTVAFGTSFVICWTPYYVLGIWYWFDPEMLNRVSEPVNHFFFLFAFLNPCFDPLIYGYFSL
Description: GnRH binding, normal rat pituitary. The settings on record: Labeled ligand 125I-[D-Lys6]-GnRH, 95% confidence interval in parentheses, read-out: Receptor Binding Activity (Kd, nM) Normal Rat. Here is the method: The displacement curves were fitted for both single and two classes of binding sites by computer calculated lines, as described.
Data analysis was performed as described.

By Kd is commonly meant the free concentration of one partner at which half of the binding sites on the other are occupied at equilibrium, for simple one-to-one binding. For `CC(C)C[C@H](NC(=O)[C@@H](CCCCN)NC(=O)[C@H](Cc1ccc(O)cc1)NC(=O)[C@H](CO)NC(=O)[C@H](Cc1c[nH]c2ccccc12)NC(=O)[C@H](Cc1cnc[nH]1)NC(=O)[C@@H]1CCC(=O)N1)C(=O)N[C@@H](CCCNC(=N)N)C(=O)N1CCC[C@H]1C(=O)NCC(N)=O` [[D-Lys^6]-GnRH, pGlu-His-Trp-Ser-Tyr-DLys-Leu-Arg-Pro-Gly-NH2], the Kd was 0.097 nM.
